Experiment in all cases: biochemical
The target in one assay is p70S6K (Homo sapiens, UniProt P23443). The settings on record: read-out: percentage inhibition of p70S6K.
The next assay addresses c-RAF (Homo sapiens, UniProt P04049). The settings on record: read-out: percentage inhibition of c-RAF.
A further assay deals with PDGFRα (Homo sapiens, UniProt P16234). The settings on record: read-out: percentage inhibition of PDGFRα.
The target in another assay is CHK2 (Homo sapiens, UniProt O96017). The settings on record: read-out: percentage inhibition of CHK2.
The next assay concerns the target Abl (Homo sapiens, UniProt P00519). To be noted: read-out: percentage inhibition of Abl.
The next assay has as its target FGFR3 (Homo sapiens, UniProt P22607). To be noted: read-out: percentage inhibition of FGFR3.
A further assay has as its target PKCα (Homo sapiens, UniProt P17252). To be noted: read-out: percentage inhibition of PKCα.

Amino acid sequences for entries named in this document (tags omitted). A change or cut given only in a name is not applied to a line headed by its entry. Residues count along the entry.
UniProt P23443: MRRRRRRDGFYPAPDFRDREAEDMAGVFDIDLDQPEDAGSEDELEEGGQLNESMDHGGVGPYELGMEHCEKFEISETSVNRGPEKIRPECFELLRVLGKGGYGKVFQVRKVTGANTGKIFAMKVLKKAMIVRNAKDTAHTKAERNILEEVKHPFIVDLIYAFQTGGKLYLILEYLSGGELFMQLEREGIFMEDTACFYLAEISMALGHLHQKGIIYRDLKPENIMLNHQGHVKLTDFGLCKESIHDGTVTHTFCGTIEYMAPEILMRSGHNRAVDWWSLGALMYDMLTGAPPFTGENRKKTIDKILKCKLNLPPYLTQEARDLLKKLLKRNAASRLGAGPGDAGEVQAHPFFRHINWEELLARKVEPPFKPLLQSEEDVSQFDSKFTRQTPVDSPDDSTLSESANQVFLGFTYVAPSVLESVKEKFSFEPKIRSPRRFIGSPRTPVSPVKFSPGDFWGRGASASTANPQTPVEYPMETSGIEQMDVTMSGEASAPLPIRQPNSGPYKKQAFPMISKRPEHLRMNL
UniProt P16234, 24-1089, species assumed: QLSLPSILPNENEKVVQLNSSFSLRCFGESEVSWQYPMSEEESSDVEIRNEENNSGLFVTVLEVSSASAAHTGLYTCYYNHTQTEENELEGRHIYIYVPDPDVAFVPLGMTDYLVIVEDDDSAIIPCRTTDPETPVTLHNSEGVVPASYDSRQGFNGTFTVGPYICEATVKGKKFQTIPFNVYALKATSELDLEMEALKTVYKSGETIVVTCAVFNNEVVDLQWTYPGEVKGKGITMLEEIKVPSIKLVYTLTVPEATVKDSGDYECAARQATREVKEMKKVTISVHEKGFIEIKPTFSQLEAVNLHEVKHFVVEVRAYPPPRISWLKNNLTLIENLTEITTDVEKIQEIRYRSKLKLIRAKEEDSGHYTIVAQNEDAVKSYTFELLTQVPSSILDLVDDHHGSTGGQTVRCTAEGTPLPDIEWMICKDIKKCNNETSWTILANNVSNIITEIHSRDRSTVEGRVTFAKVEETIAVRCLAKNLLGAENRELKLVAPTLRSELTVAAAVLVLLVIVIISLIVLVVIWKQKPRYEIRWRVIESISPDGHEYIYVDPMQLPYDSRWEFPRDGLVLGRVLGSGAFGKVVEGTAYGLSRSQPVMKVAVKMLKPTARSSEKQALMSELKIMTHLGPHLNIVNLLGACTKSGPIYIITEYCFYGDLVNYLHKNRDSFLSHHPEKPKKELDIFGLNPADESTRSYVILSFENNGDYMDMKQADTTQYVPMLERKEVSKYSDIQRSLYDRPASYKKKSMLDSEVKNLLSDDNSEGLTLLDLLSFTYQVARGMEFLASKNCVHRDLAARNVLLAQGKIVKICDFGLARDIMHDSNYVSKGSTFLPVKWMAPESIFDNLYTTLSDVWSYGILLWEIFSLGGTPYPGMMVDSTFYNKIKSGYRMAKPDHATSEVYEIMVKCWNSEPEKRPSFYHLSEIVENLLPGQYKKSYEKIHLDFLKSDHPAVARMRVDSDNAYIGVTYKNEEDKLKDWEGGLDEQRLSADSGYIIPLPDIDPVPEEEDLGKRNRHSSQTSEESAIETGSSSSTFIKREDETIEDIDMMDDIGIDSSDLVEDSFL
UniProt O96017, whole entry, species assumed: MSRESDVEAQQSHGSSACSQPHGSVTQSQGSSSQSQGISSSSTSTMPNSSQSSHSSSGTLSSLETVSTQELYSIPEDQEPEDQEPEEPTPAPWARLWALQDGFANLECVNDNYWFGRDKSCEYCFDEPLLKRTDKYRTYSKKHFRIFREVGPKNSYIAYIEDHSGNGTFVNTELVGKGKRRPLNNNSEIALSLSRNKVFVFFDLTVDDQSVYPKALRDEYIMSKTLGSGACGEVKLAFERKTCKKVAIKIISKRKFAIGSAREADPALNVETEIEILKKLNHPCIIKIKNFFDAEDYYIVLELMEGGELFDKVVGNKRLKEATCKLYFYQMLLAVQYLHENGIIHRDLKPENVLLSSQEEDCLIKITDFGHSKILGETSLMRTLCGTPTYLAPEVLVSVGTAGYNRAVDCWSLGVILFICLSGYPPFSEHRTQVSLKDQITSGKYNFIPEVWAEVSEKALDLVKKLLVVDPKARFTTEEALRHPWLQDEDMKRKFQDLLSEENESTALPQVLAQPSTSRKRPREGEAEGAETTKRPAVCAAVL
UniProt P00519, whole entry, species assumed: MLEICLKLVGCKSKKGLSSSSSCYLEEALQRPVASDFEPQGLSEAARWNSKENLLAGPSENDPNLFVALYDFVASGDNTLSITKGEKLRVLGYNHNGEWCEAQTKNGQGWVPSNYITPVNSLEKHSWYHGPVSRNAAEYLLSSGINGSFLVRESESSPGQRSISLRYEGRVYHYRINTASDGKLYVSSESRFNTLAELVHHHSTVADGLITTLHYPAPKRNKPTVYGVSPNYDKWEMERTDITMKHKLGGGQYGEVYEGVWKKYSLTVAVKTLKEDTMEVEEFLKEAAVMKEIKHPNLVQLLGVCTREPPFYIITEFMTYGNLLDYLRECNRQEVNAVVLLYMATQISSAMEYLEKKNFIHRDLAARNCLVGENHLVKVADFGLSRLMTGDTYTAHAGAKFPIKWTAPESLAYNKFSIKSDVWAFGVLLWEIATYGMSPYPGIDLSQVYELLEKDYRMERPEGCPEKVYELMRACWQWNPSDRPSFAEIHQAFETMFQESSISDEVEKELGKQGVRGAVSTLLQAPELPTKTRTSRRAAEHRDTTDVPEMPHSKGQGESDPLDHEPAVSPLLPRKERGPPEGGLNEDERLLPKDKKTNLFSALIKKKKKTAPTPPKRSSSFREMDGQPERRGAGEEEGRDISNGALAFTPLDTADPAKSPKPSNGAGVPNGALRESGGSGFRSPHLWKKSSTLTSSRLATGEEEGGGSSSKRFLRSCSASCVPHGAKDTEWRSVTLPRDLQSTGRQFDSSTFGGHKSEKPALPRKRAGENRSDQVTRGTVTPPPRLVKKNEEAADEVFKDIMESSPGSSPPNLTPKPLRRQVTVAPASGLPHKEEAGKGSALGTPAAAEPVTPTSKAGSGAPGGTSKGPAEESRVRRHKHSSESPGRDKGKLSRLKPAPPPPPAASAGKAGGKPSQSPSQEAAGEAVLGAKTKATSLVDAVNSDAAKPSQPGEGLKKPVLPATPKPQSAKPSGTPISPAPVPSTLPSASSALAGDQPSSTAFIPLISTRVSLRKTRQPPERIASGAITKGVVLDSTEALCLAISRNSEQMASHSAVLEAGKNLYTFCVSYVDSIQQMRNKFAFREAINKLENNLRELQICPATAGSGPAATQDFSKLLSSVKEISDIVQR
UniProt P22607, 23-806, species assumed: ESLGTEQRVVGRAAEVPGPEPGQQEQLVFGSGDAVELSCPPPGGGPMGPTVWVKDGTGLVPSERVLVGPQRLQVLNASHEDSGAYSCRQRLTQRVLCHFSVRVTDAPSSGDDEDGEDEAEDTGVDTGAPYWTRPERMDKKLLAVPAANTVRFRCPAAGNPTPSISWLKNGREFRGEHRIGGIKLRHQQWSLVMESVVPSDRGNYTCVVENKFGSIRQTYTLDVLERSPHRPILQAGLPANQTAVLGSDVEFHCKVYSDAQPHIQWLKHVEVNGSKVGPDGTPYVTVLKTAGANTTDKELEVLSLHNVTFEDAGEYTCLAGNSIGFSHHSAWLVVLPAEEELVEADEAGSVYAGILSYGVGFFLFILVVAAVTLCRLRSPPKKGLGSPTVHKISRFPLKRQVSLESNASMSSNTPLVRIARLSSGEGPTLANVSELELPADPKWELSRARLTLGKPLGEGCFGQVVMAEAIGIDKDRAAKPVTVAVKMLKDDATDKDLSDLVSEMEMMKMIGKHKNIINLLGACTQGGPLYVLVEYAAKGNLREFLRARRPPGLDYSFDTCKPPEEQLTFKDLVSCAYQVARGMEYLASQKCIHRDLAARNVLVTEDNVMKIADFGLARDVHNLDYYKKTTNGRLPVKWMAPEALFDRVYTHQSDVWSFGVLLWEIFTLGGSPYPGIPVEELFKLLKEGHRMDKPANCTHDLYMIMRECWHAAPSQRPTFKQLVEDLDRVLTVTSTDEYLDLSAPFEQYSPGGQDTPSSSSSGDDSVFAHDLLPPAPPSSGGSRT

By inhibition is commonly meant the change of the read-out against control, counted positive when it falls. Turning to `CN1CCN(Cc2ccc(C(=O)Nc3cccc(Nc4ccccc4-c4cc(Nc5cccc(N(C)C)c5)ncn4)c3)cc2)CC1` [Example 1, N-(3-{2-[6-(3-Dimethylamino-phenylamino)-pyrimidin-4-yl]-phenylamino}-phenyl)-4-(4-methyl-piperazin-1-ylmethyl)-benzamide], the inhibition at 10 µM was determined as 79% at p70S6K; 96% at c-RAF; 71% at PDGFRα; 59% on CHK2; 90% on Abl; 56% at FGFR3. For the same molecule, on PKCα, the inhibition at 10 µM is 64%.
